Hits are enriched below; roughly 3.7% of the tested compounds scored in any of these assays.
Nrf2 ARE act = activators of Nrf2 (ARE) signaling | AREc32 ARE-luciferase reporter (MCF7-derived line), luminescence, 24 h | hit rate 0.31% among 410,000 | AID 624171 | Potency, µM (highest dose often 46.1 µM), for the others: at the top dose activation, usual class: activators; also: potency is read from the fitted curve at half-maximal effect; % of control where 0% means no effect; nearly all actives have a fitted effect of over 65% in size
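AREc32_Fluc, 1000 cells/well, OPTI-MEM + 5% FBS, o/n 37 deg C 5% CO2; 23 nL cpd by pin tool, 24 hr; Steady-Glo 30 min RT, luminescence.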
ClpP mod = qHTS Assay for Activators of ClpP; ATP-dependent Clp protease proteolytic subunit (Bacillus subtilis (strain 168)), P80244; purified B. subtilis ClpP, FRET peptide cleavage, 20 min; Potency, µM (top dose mostly 57.5 µM), for inactives: top-dose activity change, negative = active; hit rate 1.9% among 340,000; active = well fitted falling curve with a large enough effect; inconclusive = small, poorly fitted or top-dose-only effect; inactive = no such curve, though single readings can be large or run the other way; also: potency is read from the fitted curve at half-maximal effect; the source files actives as falling curves though it sought activators and does not explain the sign; nearly all actives have a fitted effect of over 65% in size
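ClpP 10 microg/mL final, pH 8 Tris/KCl buffer with BSA, glycerol, Tween-20; compound pinned in; FRET-FV substrate; RT 20 min; Ex320/Em430; ΔFRET vs ADEP 5.8 microM, DMSO, no enzyme.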
TCR activator = activators of T cell receptors. primary human leukocytes, anti-CD3, IL-2 HTRF, 48 h. Potency, µM (series often up to 9.22 µM), without a hit: top-dose activation of IL-2 secretion, most hits filed as activators. AID 504894. 330,000 tested, under 10 active; also: % of control where 0% means no effect
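HTRF read-out of IL-2 secretion: europium cryptate donor excited at 320nm, d2 acceptor emission at 665nm. Cells were primary human leukocytes incubated 48 hr with compounds and a-CD3 beads, supplying TCR signal only.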
miR-21 reporter = raises the signal of a miR-21 reporter; AID 2288; 340,000 tested, under 10 active; Potency, µM (doses to about 38.3 µM), inactives show at the top dose reporter change, positive = more light; HeLa miR-21 FLuc reporter, luciferase, 48 h; active = well fitted rising curve with a large enough effect; inconclusive = small, poorly fitted or top-dose-only effect; inactive = no such curve, though single readings can be large or run the other way;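 note: % of control where 0% means no effect; miR-21 action dims this reporter so a rising signal means less miR-21 action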
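Using DMEM plus 10% FBS, HeLa miR-21-FLuc cells are incubated with test compounds (final up to about 40uM) for 48 hours; firefly luciferase signal is then imaged following reagent-mediated lysis.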
Nrf2 inh = Nrf2 pathway inhibition. hit rate 2.1% among 360,000. AID 504444. Potency, µM (titrated, usually from 46 µM), without a hit: at the highest dose activity change, negative = inhibition, most hits filed as inhibitors. A549 ARE-Fluc reporter, luciferase luminescence, 18-24 h; also: potency is read from the fitted curve at half-maximal effect; % is scaled to controls: 0 for no effect and ±100 for the full control effect; nearly all actives have a fitted effect of over 60% in size
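A549 ARE_Fluc cells (5000/well, 5% FBS OPTI-MEM) pre-incubated 2 h, then treated with compounds 18-24 h at 37C/5% CO2 in concentration-response. CellTiter-Fluor viability read first; BugLite luciferase luminescence after 15 min at room temperature gives Nrf2 activity.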
A549 viability = kills or reduces viability of A549 cells in Nrf2 counter-screen; A549 ARE-Fluc cells, CellTiter-Fluor viability, 18-24 h; Potency, µM (highest dose often 46 µM), inactives show at the highest dose activity change, negative = cytotoxicity, actives largely listed as inhibitors; hit rate 0.16% among 390,000; AID 504648; also: potency is read from the fitted curve at half-maximal effect; % is scaled to controls: 0 for no effect and ±100 for the full control effect
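A549 ARE_Fluc cells in 5% FBS OPTI-MEM were exposed to compounds in concentration-response for 18-24 h at 37 deg C. Viability was read by CellTiter-Fluor fluorescence (Ex 405/Em 525) after 30 min, before the luciferase read.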
The depositor's hits bear a star; ? = inconclusive; . = not tested or not shown; [ ] = remark or other dose. Unless noted, calls follow the shape of the dose curve; as a rule, active = well fitted curve in the direction sought with a large enough effect; inconclusive = small, poorly fitted or top-dose-only effect, or another doubt; inactive = no such curve, though single readings can be large; an effect the other way counts as inactive or inconclusive.

Results follow in this order: miR-21 reporter, TCR activator, Nrf2 ARE act, Nrf2 inh, ClpP mod, A549 viability
#1 Fc1ccccc1-c1nc(-c2ccccc2)no1
 : -67%, -3%[46.1 µM], ?, ?, -1%, 13%
#2 c1ccc2c(-c3nc(-c4ccncc4)no3)cccc2c1
 : -24%, ., 25%, ?, 32µM*, 19%
#3 Fc1ccccc1-c1nc(-c2ccncc2)no1
 : -44%, -7%, 13µM*, ?, 2%, 2%
#4 CCc1cccc(NC(=O)CCc2c(C)nc3c(-c4ccccc4)c(C)nn3c2C)c1
 : 9%, ., 0%, ?, -20%, -5%
#5 Cc1nnc(NC(=O)CSc2nccn2Cc2ccc(Cl)cc2)s1
 : -6%, ., 4%, ., 2%, 13%
#6 CC(=O)C1=C(O)C(=CC=Cc2ccccc2)OC1=O
 : ., ., 17%, ., -27%, .
#7 Cc1cc(/C=C/c2ccnc3ccccc23)ccc1N(C)C
 : ., ., ., ., -1%, .
#8 c1cncc(-c2noc(-c3cccc4ccccc34)n2)c1
 : -55%, -2%, ?, ?, 35µM*, 24%
#9 O=C1C(=O)c2ccc(-c3ccccc3)cc2-c2ccccc21
 : -7%, 1%[46.1 µM], -3%, 21µM*, 7%, .
#10 Nc1ccc2c(c1)C(=O)C(=O)c1ccccc1-2
 : ?, 3%, -3%, ., 49%, ?
#11 CC1=C(c2ccc(Cl)cc2)S(=O)(=O)N=C1N1CCN(c2cccc(C)c2)C(C)C1 (configuration not stated)
 : 1%, ., 0%, 23µM*, 1%, -4%
#12 Cc1cccc(N(C(=O)c2snc(C(N)=O)c2N)C(C(=O)NCc2ccccc2)c2ccncc2)c1 (configuration not stated)
 : -45%, 4%, 0%, 23µM*, ., -15%
#13 Cn1nc(C(=O)Nc2ccc(F)c(Cl)c2)c2c1-c1ccccc1S(=O)(=O)C2
 : -14%, ., -1%, -14%, -3%, 3%
#14 COc1ccc(-c2nc(NC(=O)c3cc(C(C)(C)C)nn3C)sc2C)cc1
 : ?, 5%, 0%, 18µM*, ?, ?
#15 COc1ccc(-c2nc(NC(=O)c3c(C)noc3C)sc2C)cc1
 : ., 1%, 1%, ?, ?, -17%

Brought forward from above: two entries, followed by the next part.
Results follow in this order: miR-21 reporter, TCR activator, Nrf2 ARE act, Nrf2 inh, ClpP mod, A549 viability
#14 COc1ccc(-c2nc(NC(=O)c3cc(C(C)(C)C)nn3C)sc2C)cc1
 : ?, 5%, 0%, 18µM*, ?, ?
#15 COc1ccc(-c2nc(NC(=O)c3c(C)noc3C)sc2C)cc1
 : ., 1%, 1%, ?, ?, -17%
#16 Nc1c(C(=O)Nc2ccc(S(=O)(=O)N3CCCC3)cc2)sc2nc3cc4c(cc3cc12)CCC4
 : -57%, -4%[46.1 µM], 3%, 2%, 25µM*, -18%
#17 Nc1c(C(=O)Nc2ccc(S(=O)(=O)N3CCCC3)cc2)sc2nc3ccc(OC(F)(F)F)cc3cc12
 : -18%, 1%[46.1 µM], 9%, ?, ?, ?
#18 Cc1ccc(NS(=O)(=O)c2ccc(-n3cccn3)cc2)cc1F
 : 9%, 0%, 0%, 15µM*, 0%, -2%
#19 Cc1ccc2c(CN3CCN(S(=O)(=O)c4ccc(Cl)cc4)CC3)cc(=O)oc2c1C
 : ., 1%, 0%, ?, 14µM*, -10%
#20 Cc1ccc2c(CN3CCN(Cc4ccccc4)CC3)cc(=O)oc2c1C
 : 5%, -8%, 3%, -1%, ., 7%
#21 CC(/C=N/NC(=O)c1cccnc1)=C\c1ccco1
 : -12%, 1%, ?, 12%, -8%, 7%
#22 CC(/C=N/NC(=O)c1cnccn1)=C\c1ccco1
 : -45%, 1%, 8.9µM*, 24%, ., -12%
#23 CC(/C=N/NC(=O)CSc1nnc(SCc2ccccc2)s1)=C\c1ccco1
 : 0%, 1%[46.1 µM], 11µM*, 1%, -4%, -1%
#24 CCc1ccc(N2C(=O)C3NN=C(C(=O)OCc4ccccc4)C3C2=O)cc1 (configuration not stated)
 : -1%, -3%[46.1 µM], -1%, -8%, -1%, 5%
#25 O=C(OCc1ccccc1)C1=NNC2C(=O)N(c3ccccc3)C(=O)C12 (configuration not stated)
 : -1%, 2%[46.1 µM], 0%, 12%, 22µM*, -2%
#26 O=S(=O)(Cc1ccccc1)C1CCCCC1O (configuration not stated)
 : 1%, -5%, 0%, -1%, 14µM*, 2%
#27 N#C/C(=C\c1ccc(-c2nc3ccccc3s2)o1)C(N)=O
 : -45%, 12%, 11µM*, ?, 0%, -4%
#28 COc1ccc(C2Nc3ccccc3C(=O)N2Cc2ccccc2)cc1COc1ccc(NC(C)=O)cc1 (configuration not stated)
 : ., ., ., 14%, ., -14%
#29 Cc1cc2nc(NC(=O)C3(C)CCN3C(=O)C(C)C)[nH]c2cc1C (configuration not stated)
 : ., ., 1%, ., 1%, .
#30 CC(=O)Nc1ccc(S(=O)(=O)N(Cc2ccccc2)c2ccccn2)cc1
 : 11%, 1%, 0%, -8%, 0%, -3%

Screen by screen, from the results shown.
TCR activator, compounds 20 to 30 → -8%, 1%, 1%, 1%[46.1 µM], -3%[46.1 µM], 2%[46.1 µM], -5%, 12%, ., ., 1%
miR-21 reporter, compounds 20 to 30 → 5%, -12%, -45%, 0%, -1%, -1%, 1%, -45%, ., ., 11%
A549 viability, compounds 20 to 30 → 7%, 7%, -12%, -1%, 5%, -2%, 2%, -4%, -14%, ., -3%

Continued.
Results follow in this order: miR-21 reporter, TCR activator, Nrf2 ARE act, Nrf2 inh, ClpP mod, A549 viability
#31 O=C(Nc1ccc(S(=O)(=O)N(Cc2ccccc2)c2ccccc2)cc1)c1ccccc1F
 : 0%, ., -1%, 6%, -21%, 0%
#32 O=C(NCc1ccccc1)c1ccc(CN(c2ccccn2)S(=O)(=O)c2ccccc2)cc1
 : 0%, 0%, 0%, -10%, 20µM*, -3%
#33 O=C(O)c1ccc(CN(c2ccccn2)S(=O)(=O)c2ccccc2)cc1
 : -1%, 1%, 0%, -14%, 28µM*, -2%
#34 O=C(Nc1ccc(S(=O)(=O)N(Cc2ccccc2)c2ccccc2)cc1)c1ccc(F)cc1
 : 6%, ., 1%, 23µM*, ?, -9%
#35 O=S(=O)(c1ccccc1)N(Cc1ccccc1)c1ccccn1
 : -7%, 1%, -1%, 1%, -1%, -1%
#36 Cc1ccccc1Nc1c(-c2ccc(O)cc2)nc2c(C)cccn12
 : -4%, ., 5%, 14%, 4%, 2%
#37 CCCCn1c(NC(C)=O)c(C#N)c2nc3ccccc3nc21
 : -8%, -5%, 0%, -28%, 28µM*, ?
#38 CCN(CC)CCN1C(=O)c2ccccc2NC1c1ccc(Br)cc1 (configuration not stated)
 : -1%, 0%, 4%, 21%, ., -6%
#39 CCN(CC)CCN1C(=O)c2ccccc2NC1c1ccc(F)cc1 (configuration not stated)
 : -3%, 10%, 8%, -2%, 32µM*, 2%
#40 CCN(CC)CCN1C(=O)c2ccccc2NC1c1ccc(C)cc1 (configuration not stated)
 : -5%, 4%, 0%, 1%, 32µM*, 3%
#41 CC1(C)C(=O)C2(CCCCC2)C(=O)OC1c1cccn1-c1ccc([N+](=O)[O-])cc1 (configuration not stated)
 : -3%, 2%[46.1 µM], 0%, 3%, 32µM*, 0%
#42 CCn1c(C)c(C)c2cc(C(=O)NCc3cccc(C)c3)ccc21
 : -9%, ., 0%, -20%, -8%, -1%
#43 O=C1CCc2cc(S(=O)(=O)Nc3ccc(-c4ccccc4)cc3)ccc2N1
 : ., ., ., 12µM*, ., 2%

Screens: PubChem, National Center for Advancing Translational Sciences (NCATS)
